# Antibody variant affinities, Ab-91 heavy chain, assay 2

Target peptide (SARS-CoV-2 spike, HR2 region): PDVDLGDISGINAS

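Phage display of a naive human antibody library on the peptide gave the parent. Library AAYL51 holds single substitutions and randomly drawn double and triple substitutions in the CDRs. In AlphaSeq, yeast of one mating type display the scFv and yeast of the other type display the target. Binding brings cells together so that they mate, and sequencing counts the barcode pairs among the diploids. Read counts were normalised to the haploid input and turned into Kd by a linear fit to BCL2-family pairs of known affinity, for each replicate. Each pool was mated in three replicate cultures.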

The variants keep the light chain, the linker and the frameworks of Ab-91 (scFv order VL, the linker GGGGSGGGGSGGGGS, VH).
VL: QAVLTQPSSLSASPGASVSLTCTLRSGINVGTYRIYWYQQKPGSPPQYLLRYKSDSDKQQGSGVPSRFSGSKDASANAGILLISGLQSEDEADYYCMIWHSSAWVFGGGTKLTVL
VH: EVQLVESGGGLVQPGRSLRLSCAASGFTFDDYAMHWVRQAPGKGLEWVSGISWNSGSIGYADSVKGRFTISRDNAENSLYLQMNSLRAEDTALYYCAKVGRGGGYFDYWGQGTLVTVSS

Positions count from residue 1 of the parent VH; H35Q puts Q in place of H.
Numbers give log10(Kd / nM), so 0 is 1 nM and 3 is 1 µM. Smaller is tighter.
Replicates are averaged; those with no signal do not enter the mean.
Where no diploid with the target was found in that replicate, the entry reads "nd": below detection, most likely a poor binder, though not proof of it.
For reference, the parent read 1.86 as the reference entry and 0.88 as a member of this library.

changes,"log10 Kd, replicates","log10 Kd (nM), mean",signal with controls
H35Q+G100Q+G103T,nd / 5.22 / nd,5.22,2/9 (4.32)
G50A+I58V,nd / nd / nd,nd,1/9 (2.54)
G50P+W53A+D62S,4.75 / 4.50 / nd,4.62,1/9 (5.19)
V64R+D107I,3.86 / nd / nd,3.86,1/9 (5.14)
A33G+H35G+G100A,5.61 / nd / nd,5.61,6/9 (4.82)
A61R+D107S,4.74 / 4.33 / 3.89,4.32,1/9 (4.99)
G26L+S52Y+A61Y,nd / nd / nd,nd,0/9
G26K+I51K,4.94 / 5.60 / 4.30,4.95,6/9 (4.93)
S63Q+G100Y+R101V,5.08 / 4.41 / 3.50,4.33,3/9 (4.50)
A61Y+G104Y+Y108V,nd / nd / nd,nd,1/9 (2.24)
Y32G+G50W+A61W,nd / 4.47 / nd,4.47,2/9 (4.54)
F27P+I58C+F106E,5.93 / 4.99 / 3.56,4.83,5/9 (4.54)
F29C+S63P+R101N,nd / nd / nd,nd,0/9
S55Y+V99Y+G100C,5.50 / nd / nd,5.50,0/9
S63T+R101Y+F106A,4.77 / 4.06 / nd,4.41,1/9 (4.77)
M34F+W53P+Y108P,2.17 / 2.07 / 2.47,2.24,5/9 (4.29)
S57H+G100A+F106E,nd / 6.07 / nd,6.07,2/9 (4.42)
A33P+G56N+G100C,nd / nd / nd,nd,0/9
G56M+A61K+D62W,nd / nd / nd,nd,0/9
T28K+S52L+V99L,4.40 / 6.78 / 3.69,4.96,7/9 (5.34)
I58F+Y108C,5.79 / nd / nd,5.79,8/9 (5.39)
F29V+S52H+S57H,nd / nd / nd,nd,0/9
S63T+V64S+D107P,2.56 / nd / 2.24,2.40,0/9
R101I,nd / nd / nd,nd,0/9
G50A+S57Q+G59R,nd / 5.38 / 5.73,5.55,4/9 (4.13)
T28S+D31T+G50T,nd / nd / nd,nd,3/9 (4.66)
M34D+S63E+Y105S,nd / nd / nd,nd,1/9 (3.86)
A33K+S63G+Y105M,nd / nd / nd,nd,1/9 (4.03)
H35R+G50M+S55G,nd / 5.23 / nd,5.23,1/9 (4.73)
S63Y+G103C+Y105H,1.42 / 1.31 / 0.91,1.21,0/9
G26F+T28H+G50A,nd / nd / nd,nd,0/9
G26C+F27L+S52T,4.06 / nd / nd,4.06,1/9 (2.78)
W53H+K65A+F106A,5.48 / 5.01 / 5.30,5.27,7/9 (4.39)
G59W+Y60P+F106S,3.69 / nd / 4.02,3.85,2/9 (5.23)
G59R+G102W+F106T,nd / 3.99 / nd,3.99,4/9 (4.38)

The first 6 variants above that were never detected:

changes,"log10 Kd, replicates","log10 Kd (nM), mean",signal with controls
G50A+I58V,nd / nd / nd,nd,1/9 (2.54)
G26L+S52Y+A61Y,nd / nd / nd,nd,0/9
A61Y+G104Y+Y108V,nd / nd / nd,nd,1/9 (2.24)
F29C+S63P+R101N,nd / nd / nd,nd,0/9
A33P+G56N+G100C,nd / nd / nd,nd,0/9
G56M+A61K+D62W,nd / nd / nd,nd,0/9

As a blank, each scFv also met three strains without target: over library AAYL51, 21% of these pairings were detected, typically at 4.54 and seldom below 3.26. For each scFv, signals with the empty controls are counted beside the result, with their mean in brackets.

Source: Engelhart et al. 2022 (doi:10.1038/s41597-022-01779-4), MIT Lincoln Laboratory and A-Alpha Bio; data file from the FLAb repository.